The numbers were not newly measured in US20240398790A1 (ABBVIE INC., priority 2021, published 2024), which cites them from elsewhere.

In the data set the test system is AS. As to conditions: literature; cited from earlier work.

Regarding abatacept: T cell blockade inhibitor, the “efficacy achieved in AS” value was “low efficacy”.
